Where two headings read alike, the source gives them in different places.
Tested on: P-gp

C[C@]12CC[C@H]3[C@@H](CCC4=CC(=O)CC[C@@]43C)[C@@H]1CC[C@@H]2O [testosterone]
Change in corneal absorption rate (ka) of erythromycin (testosterone 100 μM or 150 μM): No significant difference | Inhibition of P-gp efflux (determined by increased absorption) (testosterone 250 μM): significant inhibition | Inhibition of P-gp efflux (determined by increased absorption) (testosterone 500 μM): highest inhibition
